From patent US9433687B2, “Anti-Notch3 antibodies and antibody-drug conjugates” (Pfizer Inc., priority 2012, dated 2016)

Tests used:
[1] = tested on: 37622A1 NSCLC patient-derived xenografts; test: 37622A1 patient derived NSCLC xenograft model; assay type: in vivo, mouse; details: 3 mg/kg iv Q4dx4
Description: The effects of anti-Notch3 ADCs were examined in immunodeficient mice on the in vivo growth of human tumor xenografts that were established from fragments of freshly resected 37622A1 NSCLC tumors obtained in accordance with appropriate consent procedures (Asterand). The 37622A1 NSCLC patient-derived xenografts were subcutaneously passaged in vivo as fragments from animal to animal in nude (Nu/Nu) female mice. When the tumors reached a volume of 150 to 300 mm^3, they were staged to ensure uniformity of the tumor size among various treatment groups. The 37622A1 NSCLC patient-derived xenografts model was dosed intravenously four times every four days (Q4d×4) with PBS vehicle, humanized anti-Notch3 ADCs, control huNeg-8.8 ADCs and cisplatin at the doses provided in Table 19.

[2] = tested on: MDA-MB-468 breast xenografts; test: MDA-MB-468 breast xenograft model; assay type: in vivo, mouse
Procedure: Similar in vivo experiments were performed with the MDA-MB-468 breast cancer cell line as described above. MDA-MB-468 cells are classified as a triple-negative breast cancer (TNBC) basal-like subtype since they lack expression of the estrogen receptor, progesterone receptor and human epidermal growth factor receptor 2 (HER2) (Lehmann, B D, et al, J Clin Invest. 2011; 121(7):2750-2767). To generate xenografts, female SCID Hairless Outbred (SHO) mice were orthotopically implanted with 10×10^6 MDA-MB-468 cells containing 50% Matrigel (BD Biosciences) in the mammary fat pad. […] FIGS. 13A and 13B show graphs of the data from Table 23 of anti-Notch3 ADCs with vc0101 linker-payloads compared to control huNeg-8.8 ADCs and PBS vehicle. FIGS. 14A and 14B show graphs of the data from Table 24 of the anti-Notch3 ADCs with vc6780 linker-payloads compared to control huNeg-8.8 ADC and PBS vehicle.
The MDA-MB-468 breast cancer model was also dosed intravenously Q4d×4 with PBS vehicle, rat-human chimeric anti-Notch3 ADCs and control huNeg-8.8 ADCs, at a dose of 5 mg/kg as provided in FIGS. 16B and 16C.

[3] = tested on: OVCAR3 (ovarian cancer); test: In vitro cytotoxicity (MTS), OVCAR3; assay type: cell-based, human; details: Table 14; LP = lacked potency
Procedure: The effects of anti-Notch3 ADCs were assessed on 1) cell lines endogenously expressing Notch3 protein: HCC2429 (lung cancer), OVCAR3 (ovarian cancer) and MDA-MB-468 (breast cancer), 2) cell lines engineered to over-express full length human Notch3 protein: MDA-MB-468/hNotch3 and U2OS/hNotch3, and 3) a negative control cell line (SW900) using an MTS cellular viability indicator (Promega, Madison, Wis.). These cell lines were cultured with increasing concentrations of anti-Notch3 ADCs comprising rat-human chimeric anti-Notch3 antibodies, ch28 and ch75, and humanized anti-Notch3 antibodies, hu28 and hu75, conjugated to various linker-payload combinations of the present invention. As a specificity control for the anti-Notch3-ADCs, non-targeted control-ADCs (huNeg8.8-ADCs or ch2H6-ADCs) were also tested on the same cell lines. After four days, viability of each culture was assessed. IC50 values were calculated by logistic non-linear regression, model #203 with XL fit v4.2 (IDBS, Guildford, Surry, UK) and presented as ng Ab/mL. […]
This process generated the anti-Notch3 cysteine mutant ADCs: hu28-(L443C)-vc0101 and hu28-(L443C/κK183C)-vc0101. The activity of the anti-Notch3 cysteine mutant ADCs were assessed on cell lines endogenously expressing Notch3 protein: HCC2429 (lung cancer) and OVCAR3 (ovarian cancer) using an MTS cellular viability indicator as described in previous Examples.

B1: hu75-vc0101: hu75 conjugated to vc0101 linker-payload (conjugate)
heavy: EVQLVESGGGLVQPGGSLRLSCAASGYAFTDYWMTWVRQAPGKGLEWVAEISPNSGGTNFNEKFKGRFTISVDNAKNSLYLQMNSLRAEDTAVYYCARGEIRYNWFAYWGQGTLVTVSSASTKGPSVFPLAPSSKSTSGGTAALGCLVKDYFPEPVTVSWNSGALTSGVHTFPAVLQSSGLYSLSSVVTVPSSSLGTQTYICNVNHKPSNTKVDKKV[letters of human IgG1 Fc omitted]
light: DIQMTQSPSSLSASVGDRVTITCKASQNVGNNIAWYQQKPGKAPKLLIYYASNRYTGVPSRFSGSGYGTDFTLTISSLQPEDFATYYCQRLYNSPFTFGGGTKVEIKRTVAAPSVFIFPPSDEQLKSGTASVVCLLNNFYPREAKVQWKVDNALQSGNSQESVTEQDSKDSTYSLSSTLTLSKADYEKHKVYACEVTHQGLSSPVTKSFNRGEC
- tumor volume ([1]; Day 4): 200 mm^3
- tumor volume ([1]; Day 7): 227 mm^3
- tumor volume ([1]; Day 11): 175 mm^3
- tumor volume ([1]; Day 14): 156 mm^3
- tumor volume ([1]; Day 18): 112 mm^3
- tumor volume ([1]; Day 21): 122 mm^3
- tumor volume ([1]; Day 25): 137 mm^3
- tumor volume ([1]; Day 28): 161 mm^3
- tumor volume ([1]; Day 32): 175 mm^3
- tumor volume ([1]; Day 35): 271 mm^3
- tumor volume ([1]; Day 39): 319 mm^3
- tumor volume ([1]; Day 42): 357 mm^3
- tumor volume ([1]; Day 46): 431 mm^3
- tumor volume ([1]; Day 49): 519 mm^3
- tumor volume ([1]; Day 53): 678 mm^3
- tumor volume ([1]; Day 56): 818 mm^3
- tumor volume ([1]; Day 60): 710 mm^3
- tumor volume ([1]; Day 63): 824 mm^3
- tumor volume ([1]; Day 67): 938 mm^3
- tumor volume ([1]; Day 70): 953 mm^3
- tumor volume ([1]; Day -1): 185 mm^3
- tumor volume (mm^3 ± SEM) ([2]; Table 23, 0.3 mg/kg i.v. Q4d×4, DAY 0): 348 mm^3
- tumor volume (mm^3 ± SEM) ([2]; Table 23, 0.3 mg/kg i.v. Q4d×4, DAY 4): 439 mm^3
- tumor volume (mm^3 ± SEM) ([2]; Table 23, 0.3 mg/kg i.v. Q4d×4, DAY 7): 435 mm^3
- tumor volume (mm^3 ± SEM) ([2]; Table 23, 0.3 mg/kg i.v. Q4d×4, DAY 11): 504 mm^3
- tumor volume (mm^3 ± SEM) ([2]; Table 23, 0.3 mg/kg i.v. Q4d×4, DAY 14): 507 mm^3
- tumor volume (mm^3 ± SEM) ([2]; Table 23, 0.3 mg/kg i.v. Q4d×4, DAY 18): 587 mm^3
- tumor volume (mm^3 ± SEM) ([2]; Table 23, 0.3 mg/kg i.v. Q4d×4, DAY 21): 590 mm^3
- tumor volume (mm^3 ± SEM) ([2]; Table 23, 0.3 mg/kg i.v. Q4d×4, DAY 26): 652 mm^3
- tumor volume (mm^3 ± SEM) ([2]; Table 23, 0.3 mg/kg i.v. Q4d×4, DAY 29): 675 mm^3
- tumor volume (mm^3 ± SEM) ([2]; Table 23, 0.3 mg/kg i.v. Q4d×4, DAY 32): 738 mm^3
- tumor volume (mm^3 ± SEM) ([2]; Table 23, 0.3 mg/kg i.v. Q4d×4, DAY 35): 821 mm^3
- tumor volume (mm^3 ± SEM) ([2]; Table 23, 0.3 mg/kg i.v. Q4d×4, DAY 39): 864 mm^3
- tumor volume (mm^3 ± SEM) ([2]; Table 23, 0.3 mg/kg i.v. Q4d×4, DAY 42): 997 mm^3
- tumor volume (mm^3 ± SEM) ([2]; Table 23, 1 mg/kg i.v. Q4d×4, DAY 0): 347 mm^3
- tumor volume (mm^3 ± SEM) ([2]; Table 23, 1 mg/kg i.v. Q4d×4, DAY 4): 410 mm^3
- tumor volume (mm^3 ± SEM) ([2]; Table 23, 1 mg/kg i.v. Q4d×4, DAY 7): 383 mm^3
- tumor volume (mm^3 ± SEM) ([2]; Table 23, 1 mg/kg i.v. Q4d×4, DAY 11): 373 mm^3
- tumor volume (mm^3 ± SEM) ([2]; Table 23, 1 mg/kg i.v. Q4d×4, DAY 14): 350 mm^3
- tumor volume (mm^3 ± SEM) ([2]; Table 23, 1 mg/kg i.v. Q4d×4, DAY 18): 296 mm^3
- tumor volume (mm^3 ± SEM) ([2]; Table 23, 1 mg/kg i.v. Q4d×4, DAY 21): 260 mm^3
- tumor volume (mm^3 ± SEM) ([2]; Table 23, 1 mg/kg i.v. Q4d×4, DAY 26): 267 mm^3
- tumor volume (mm^3 ± SEM) ([2]; Table 23, 1 mg/kg i.v. Q4d×4, DAY 29): 261 mm^3
- tumor volume (mm^3 ± SEM) ([2]; Table 23, 1 mg/kg i.v. Q4d×4, DAY 32): 264 mm^3
- tumor volume (mm^3 ± SEM) ([2]; Table 23, 1 mg/kg i.v. Q4d×4, DAY 35): 326 mm^3
- tumor volume (mm^3 ± SEM) ([2]; Table 23, 1 mg/kg i.v. Q4d×4, DAY 39): 324 mm^3
- tumor volume (mm^3 ± SEM) ([2]; Table 23, 1 mg/kg i.v. Q4d×4, DAY 42): 381 mm^3
- tumor volume (mm^3 ± SEM) ([2]; Table 23, 1 mg/kg i.v. Q4d×4, DAY 47): 442 mm^3
- tumor volume (mm^3 ± SEM) ([2]; Table 23, 1 mg/kg i.v. Q4d×4, DAY 50): 484 mm^3
- tumor volume (mm^3 ± SEM) ([2]; Table 23, 1 mg/kg i.v. Q4d×4, DAY 53): 452 mm^3
- tumor volume (mm^3 ± SEM) ([2]; Table 23, 1 mg/kg i.v. Q4d×4, DAY 56): 535 mm^3
- tumor volume (mm^3 ± SEM) ([2]; Table 23, 1 mg/kg i.v. Q4d×4, DAY 60): 603 mm^3
- tumor volume (mm^3 ± SEM) ([2]; Table 23, 3 mg/kg i.v. Q4d×4, DAY 0): 347 mm^3
- tumor volume (mm^3 ± SEM) ([2]; Table 23, 3 mg/kg i.v. Q4d×4, DAY 4): 444 mm^3
- tumor volume (mm^3 ± SEM) ([2]; Table 23, 3 mg/kg i.v. Q4d×4, DAY 7): 338 mm^3
- tumor volume (mm^3 ± SEM) ([2]; Table 23, 3 mg/kg i.v. Q4d×4, DAY 11): 277 mm^3
- tumor volume (mm^3 ± SEM) ([2]; Table 23, 3 mg/kg i.v. Q4d×4, DAY 14): 181 mm^3
- tumor volume (mm^3 ± SEM) ([2]; Table 23, 3 mg/kg i.v. Q4d×4, DAY 18): 90 mm^3
- tumor volume (mm^3 ± SEM) ([2]; Table 23, 3 mg/kg i.v. Q4d×4, DAY 21): 60 mm^3
- tumor volume (mm^3 ± SEM) ([2]; Table 23, 3 mg/kg i.v. Q4d×4, DAY 26): 16 mm^3
- tumor volume (mm^3 ± SEM) ([2]; Table 23, 3 mg/kg i.v. Q4d×4, DAY 29): 8 mm^3
- tumor volume (mm^3 ± SEM) ([2]; Table 23, 3 mg/kg i.v. Q4d×4, DAY 32): 7 mm^3
- tumor volume (mm^3 ± SEM) ([2]; Table 23, 3 mg/kg i.v. Q4d×4, DAY 35): 0 mm^3
- tumor volume (mm^3 ± SEM) ([2]; Table 23, 3 mg/kg i.v. Q4d×4, DAY 39): 0 mm^3
- tumor volume (mm^3 ± SEM) ([2]; Table 23, 3 mg/kg i.v. Q4d×4, DAY 42): 0 mm^3
- tumor volume (mm^3 ± SEM) ([2]; Table 23, 3 mg/kg i.v. Q4d×4, DAY 47): 0 mm^3
- tumor volume (mm^3 ± SEM) ([2]; Table 23, 3 mg/kg i.v. Q4d×4, DAY 50): 0 mm^3
- tumor volume (mm^3 ± SEM) ([2]; Table 23, 3 mg/kg i.v. Q4d×4, DAY 53): 0 mm^3
- tumor volume (mm^3 ± SEM) ([2]; Table 23, 3 mg/kg i.v. Q4d×4, DAY 56): 0 mm^3
- tumor volume (mm^3 ± SEM) ([2]; Table 23, 3 mg/kg i.v. Q4d×4, DAY 60): 0 mm^3
- tumor volume (mm^3 ± SEM) ([2]; Table 23, 3 mg/kg i.v. Q4d×4, DAY 63): 0 mm^3
- tumor volume (mm^3 ± SEM) ([2]; Table 23, 3 mg/kg i.v. Q4d×4, DAY 67): 0 mm^3
- tumor volume (mm^3 ± SEM) ([2]; Table 23, 3 mg/kg i.v. Q4d×4, DAY 70): 0 mm^3
- tumor volume (mm^3 ± SEM) ([2]; Table 23, 3 mg/kg i.v. Q4d×4, DAY 76): 0 mm^3
- tumor volume (mm^3 ± SEM) ([2]; Table 23, 3 mg/kg i.v. Q4d×4, DAY 83): 0 mm^3
- tumor volume (mm^3 ± SEM) ([2]; Table 23, 3 mg/kg i.v. Q4d×4, DAY 90): 0 mm^3
- tumor volume (mm^3 ± SEM) ([2]; Table 23, 3 mg/kg i.v. Q4d×4, DAY 97): 0 mm^3
- tumor volume (mm^3 ± SEM) ([2]; Table 23, 3 mg/kg i.v. Q4d×4, DAY 103): 0 mm^3
- tumor volume (mm^3 ± SEM) ([2]; Table 23, 3 mg/kg i.v. Q4d×4, DAY 110): 0 mm^3
- tumor volume (mm^3 ± SEM) ([2]; Table 23, 3 mg/kg i.v. Q4d×4, DAY 118): 0 mm^3
- tumor volume (mm^3 ± SEM) ([2]; Table 23, 3 mg/kg i.v. Q4d×4, DAY 125): 0 mm^3
- IC50 (ng Ab/mL), OVCAR3 [3]: 515 ng Ab/mL
